Protein sequences, listed by entry. Tags and fused reporters are not part of them. Lines headed by an entry give the natural chain unless they say otherwise; changes in a name come on top.
UniProt Q8TDS4: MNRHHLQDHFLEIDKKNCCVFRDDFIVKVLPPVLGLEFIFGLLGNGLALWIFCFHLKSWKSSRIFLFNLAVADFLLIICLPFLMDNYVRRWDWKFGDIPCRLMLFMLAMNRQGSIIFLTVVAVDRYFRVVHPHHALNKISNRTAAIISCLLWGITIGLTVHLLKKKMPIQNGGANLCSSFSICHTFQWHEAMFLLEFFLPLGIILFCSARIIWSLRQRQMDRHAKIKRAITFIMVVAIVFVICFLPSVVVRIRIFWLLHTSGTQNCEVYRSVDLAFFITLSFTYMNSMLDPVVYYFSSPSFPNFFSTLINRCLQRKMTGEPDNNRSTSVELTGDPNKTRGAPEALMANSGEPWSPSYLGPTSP

For the assay, the target named is Hydroxycarboxylic acid receptor 2 (Homo sapiens) (UniProt Q8TDS4). Description: Displacement of [3H]nicotinic acid from human GPR109a receptor expressed in human HEK293T cells at 10 uM by liquid scintillation counting. Format: cell-based. The note with it: HEK-293T. For orientation: In a radioligand displacement assay an active substance lowers the binding of a labelled ligand.
Consider `CCc1ccc(/C=C/C(=O)O)o1`, for which the Activity is 14%.
In the case of `CC(=O)N/C(=C/C(=O)O)c1ccccc1` it was 0%; in that of `O=C(O)/C=C/C(=O)OCc1ccccc1Br`, 0%.
Then `O=C(O)/C=C/c1cccnc1`, with 3%; and `Cc1ccc(/C=C/C(=O)O)cc1`, with 2%; and `COc1ccccc1COC(=O)/C=C/C(=O)O`, with 5%.
Then `COc1ccc(COC(=O)/C=C/C(=O)O)cc1`, with 7%; and `O=C(O)/C=C/C(=O)OCc1ccc(Cl)cc1`, with 14%; and `O=C(O)/C=C/c1sccc1Br`, with 6%.
In turn, `O=C(O)/C=C/c1cccc(Cl)c1` registered an Activity of 6%.
Take `O=C(O)/C=C/c1cccc([N+](=O)[O-])c1`: the Activity is 0%.
Consider `O=C(O)C=C(c1ccccc1)c1ccccc1`, for which the Activity was determined as 0%.
As for `O=C(O)/C=C/C(=O)OC1CCCCC1`, the Activity is 17%.
Then `CC(C)=CC(=O)O`, with 0%; and `Cc1ccccc1/C=C/C(=O)O`, with 0%.
In the case of `COc1ccc(/C=C/C(=O)O)cc1` it was 0%.
In the case of `O=C(O)/C=C/c1cccc(O)c1` it was 0%; in that of `O=C(O)/C=C/c1cc(Br)cs1`, 6%.
In the case of `C/C(=C\C(=O)O)c1ccccc1`, the Activity came out at 1%.
In the case of `O=C(O)/C=C/c1ccc2c(c1)OCO2` it was 7%; in that of `C/C=C/C(=O)O`, 6%; in that of `Nc1ccc(/C=C/C(=O)O)cc1`, 2%.
In the case of `O=C(O)/C=C/C(=O)Oc1ccccc1` it was 10%; in that of `O=C(O)/C=C/c1ccc[nH]1`, 7%; in that of `Cc1ccc(/C=C/C(=O)O)o1`, 7%.
In the case of `COc1cccc(COC(=O)/C=C/C(=O)O)c1`, the Activity was 4%.
Then `Cc1cccc(/C=C/C(=O)O)c1`, with 0%; and `O=C(O)/C=C/c1ccc(-c2ccc(Cl)cc2)o1`, with 0%.
In the case of `O=C(O)/C=C/c1ccccc1O` it was 4%.
In the case of `O=C(O)/C=C/c1ccc(Br)o1` it was 9%; in that of `O=C(O)/C=C/c1ccc(Cl)cc1`, 17%; in that of `O=C(O)/C=C/c1ccc(O)c(O)c1`, 4%.
`O=C(O)/C=C/C(=O)OCc1ccc(Br)cc1` came in with an Activity of 21%.
In the case of `Cc1ccc(COC(=O)/C=C/C(=O)O)cc1` it was 30%; in that of `O=C(O)/C=C/C(=O)OCCCc1ccccc1`, 26%.
In the case of `CN(C)c1ccc(/C=C/C(=O)O)cc1` it was 0%.
In the case of `CC/C=C/C(=O)O` it was 19%.

The values above are taken from ChEMBL document CHEMBL1770096, “Structure-activity relationships of trans-substituted-propenoic acid derivatives on the nicotinic acid receptor HCA2 (GPR109A)” (Bioorg Med Chem Lett, 2011).
